Data on one compound can be found in patent publication US9408888B2, “High affinity bivalent helically constrained peptide against cancer” (COUNCIL OF SCIENTIFIC AND INDUSTRIAL RESEARCH, priority 2011, dated 2016).

One experiment concerns the target T1, S100B (Homo sapiens, UniProt P04271).
T1 sequence (P04271 1-92): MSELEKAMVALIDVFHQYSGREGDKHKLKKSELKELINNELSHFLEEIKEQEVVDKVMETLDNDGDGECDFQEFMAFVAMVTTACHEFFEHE
Description: Fluorescence anisotropy binding of N-terminal fluorescein labeled peptides to S100B. The conditions noted are these: 50 mM Tris-HCl pH 7.5, 50 mM NaCl, 10 mM CaCl2, 25 degree C, read-out: Kd (dissociation constant) for S100B. The text has this:
(§1) FIG. 2. (A) Table of some representative peptides synthesized which respectively include pM-53 (SEQ ID No. 6), pBN-53 (SEQ ID No. 7), pBDC-53 (SEQ ID No. 8), pBM-TRTK (SEQ ID No. 2), pBDC-TRTK (two SEQ ID No. 2's cross-linked together with BMH), and pBBD-TRTK (SEQ ID No. 11) and their dissociation constants. Binding isotherm of branch dimeric SEQ ID No. 3 (i.e., SEQ ID No. 11) with (B) S-100B and (C) S100P and (D) branch dimeric SEQ ID No. 5 (i.e., SEQ ID No. 12) with S100B. Fluorescein labeled, 5 nM branch dimeric SEQ ID No. 3 (i.e., SEQ ID No. 11) or branch dimeric SEQ ID No. 5 (i.e., SEQ ID No. 12) was titrated with increasing concentrations of S100B or S100P in 50 mM Tris-HCl buffer, pH 7.5, containing 50 mM NaCl and 10 mM CaCl2 at ambient temperatures which was 25±1 degree C. Anisotropy was determined at each point. The each point is averaging of at least three independent experiments. The line is best fit to a single site binding equation given in description of the invention.
Binding affinity of aib substituted p53 (SEQ ID No. 7) (and all other peptides) was estimated by fluorescence anisotropy using N-terminal fluorescein labeled peptides. […] Since S100B is a dimer, one possible way to enhance the binding is to synthesize a bivalent molecule, which can simultaneously bind to two subunits. […]
A general note: Polarisation of emitted light reports the rotation of a fluorescent probe.

Another experiment deals with T2, S100P (Homo sapiens, UniProt P25815).
T2 sequence (P25815 1-95): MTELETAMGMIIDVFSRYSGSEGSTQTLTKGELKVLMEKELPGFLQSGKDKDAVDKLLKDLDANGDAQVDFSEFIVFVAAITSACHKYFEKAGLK
The experiment can be described thus: Fluorescence anisotropy binding of fluorescein labeled peptide to S100P. The following applies: closest paralog of S100B.
From the text: as §1
Binding data of the several of these peptides are shown in FIG. 2 (A) and some of the corresponding binding isotherms are shown FIG. 2(B-D). […] Also synthesized was a mutant branched peptide (SEQ ID No. 12 which is a lysine branch dimeric form of SEQ ID No. 5) bearing two mutations in the interacting residues. […] This peptide will be used as a control in the cellular experiments to be described later.

The structures appear in SMILES notation.

Consider `CC[C@H](C)[C@H](NC(=O)[C@H](CCCCN)NC(=O)[C@@H](NC(=O)[C@H](CCCNC(=N)N)NC(=O)[C@@H](N)[C@@H](C)O)[C@@H](C)O)C(=O)N[C@@H](CC(=O)O)C(=O)N[C@@H](Cc1c[nH]c2ccccc12)C(=O)NC(C)(C)C(=O)N[C@@H](CCCCN)C(=O)N[C@H](C(=O)N[C@@H](CC(C)C)C(=O)NC(C)(C)C(=O)N[C@@H](CCCCN)C(=O)NCCCCCC(=O)NCCCC[C@H](NC(=O)CCCCCNC(=O)[C@H](CCCCN)NC(=O)C(C)(C)NC(=O)[C@H](CC(C)C)NC(=O)[C@@H](NC(=O)[C@H](CCCCN)NC(=O)C(C)(C)NC(=O)[C@H](Cc1c[nH]c2ccccc12)NC(=O)[C@H](CC(=O)O)NC(=O)[C@@H](NC(=O)[C@H](CCCCN)NC(=O)[C@@H](NC(=O)[C@H](CCCNC(=N)N)NC(=O)[C@@H](N)[C@@H](C)O)[C@@H](C)O)[C@@H](C)CC)[C@@H](C)CC)C(N)=O)[C@@H](C)CC` [branch dimeric SEQ ID No. 3], for which the Kd at S100B amounted to 7.7 ± 3.5 nM. Besides, on S100P, the “weaker binding to S100P than to S100B (selectivity)” value is listed as “approximately 7 fold”.

A word on the Kd: it is the concentration at which binding is half-saturated.
